According to US5294603A, “Pharmaceutical compositions containing didemnins” (The Board of Trustees of The University of Illinois, priority 1992, dated 1994):

Assays:
L1210 cells = test: Inhibition of L1210 cell growth (Tables II-IV); design: IC50: unit not given beside the values; settings: for % I / Net increase in cells/mL: Table III
[1] = tested on: cells of the VIV assay (not named); test: Cytotoxicity in the VIV assay (Tables VI, 9); settings: Table VI, dose 0.3 (unit not given)
[2] = dose 0.1 (no unit in table; ng/ml)
[3] = dose 0.3 (no unit in table; ng/ml)
[4] = dose 1 (no unit in table; ng/ml)
[5] = dose 3 (no unit in table; ng/ml)
[6] = dose 10 (no unit in table; ng/ml)

For -Ketobutyryl-Pro Didemnin A, the IC50 (L1210 cells; L1210 cells, unit not given) was 0.4, the “% I” value (L1210 cells; [2]) was -8% and the “Net increase in cells/mL” value (L1210 cells; [2]) was 3.9 × 10^5 cells/mL. For the same substance, the “% I” value (L1210 cells; [3]) was 31%, the “Net increase in cells/mL” value (L1210 cells; [3]) was 2.5 × 10^5 cells/mL and the “% I” value (L1210 cells; [4]) was 94%. For the same substance, the “Net increase in cells/mL” value (L1210 cells; [4]) was 2.3 × 10^4 cells/mL, the “% I” value (L1210 cells; [5]) was 100% and the “Net increase in cells/mL” value (L1210 cells; [5]) was 0 cells/mL. The “% I” value (L1210 cells; [6]) was 100%, the “Net increase in cells/mL” value (L1210 cells; [6]) was 0 cells/mL and the “cytotoxicity compared with DDB” value (L1210 cells; at 1 ng/ml) was “comparable to that of DDB”. The “cytotoxicity compared with DDB” value (L1210 cells; at 3 ng/ml) was “retained the full cytotoxicity of DDB” and the “% Cytotoxicity” value [1] was 87%.
